# Key:
# [1] = format: physicochemical; settings: pH 7.4
# Experimental: a) The sedimentation test was used to investigate the solubility of the analogs compared to IAPP. The quantity of precipitated or soluble peptide was determined as a function of time. In one typical experiment, first a peptide solution at a given concentration (1, 10, or 100 μM) in 10 mM sodium phosphate buffer, pH 7.4 was prepared. Aliquots of this solution were centrifuged at specified times (20200 g, 20 min), and precipitated protein in the pellet and supernatant was quantified using the bicinchonic acid (BCA) protein determination assay. FIG. 1 illustrates several results from this test. […] After 20 h IAPP was completely precipitated; in contrast, the N-methylated IAPP-LA [sic; IAPP-AL], IAPP-GI, and IAPP-AF [sic; IAPP-FA] analogs remained soluble over 14 days, even at a concentration of 100 μM. IAPP completely precipitated after only 2 h under the latter-referenced conditions (100 μM).
# (human) IAPP receptor [2] = biological target: T1, (human) IAPP receptor (Homo sapiens, UniProt P30988); assay: Adenylate cyclase activation test (cAMP Biotrak ELISA) on MCF-7 cells; format: cell-based; settings: 15 min, 37° C.
# T1 construct: Specific IAPP receptors are expressed in the MCF-7 cell line; endogenous in cells; host or cells: MCF-7 (human breast cancer cells)
# T1 sequence (P30988 25-474): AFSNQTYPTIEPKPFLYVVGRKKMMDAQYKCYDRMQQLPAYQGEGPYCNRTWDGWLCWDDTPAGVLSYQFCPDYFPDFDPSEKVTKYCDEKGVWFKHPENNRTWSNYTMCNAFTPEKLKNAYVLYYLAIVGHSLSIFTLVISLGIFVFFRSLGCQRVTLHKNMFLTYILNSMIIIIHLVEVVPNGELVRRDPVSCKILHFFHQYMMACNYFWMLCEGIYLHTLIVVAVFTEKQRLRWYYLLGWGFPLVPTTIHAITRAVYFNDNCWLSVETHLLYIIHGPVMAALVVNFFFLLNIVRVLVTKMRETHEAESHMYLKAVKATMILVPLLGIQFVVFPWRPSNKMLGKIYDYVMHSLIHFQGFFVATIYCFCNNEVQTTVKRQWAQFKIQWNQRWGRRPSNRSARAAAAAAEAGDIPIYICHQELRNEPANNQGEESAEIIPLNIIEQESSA
# Experimental: To test the agonistic potential of the analogs, their adenylate cyclase activation potential (AC activation) was then tested. It has been shown that several of the receptor-mediated biological effects of IAPP are imparted by adenylate cyclase activation. The AC activation was determined by quantifying the cAMP produced after treating the cells (15 min, 37° C.) with various concentrations of IAPP or the analogs, using the cAMP Biotrak ELISA (Amersham). The test was performed on MCF-7 cells in a manner analogous to that described by Zimmermann, et al., J. Endocrinology (1997) (loc. cit.).
# (human) IAPP receptor [3] = biological target: T1, (human) IAPP receptor; assay: IAPP receptor binding test with [125I]-rIAPP on MCF-7 cells; settings: displacement of [125I]-rIAPP, 1 h at RT
# Experimental: To test the effect of the analogs as (human) IAPP receptor agonists, first their receptor binding affinity to cells which express this receptor was tested. One example of such cells is the MCF-7 cell line (Zimmermann, et al., J. Endocrinology (1997), 155, 423-31), which originates from human breast cancer cells. Specific IAPP receptors are expressed in the MCF-7 cell line, for which reason this cell line is widely used for testing IAPP agonists/antagonists.
# The receptor binding test was carried out in a manner analogous to that described by Zimmermann, et al., J. Endocrinology (1997) 155, 423-31. The binding of the rat IAPP (rIAPP) sequence labeled with ^125I, which is the strongest receptor ligand known to date, in the presence of IAPP or the IAPP-GI, IAPP-AL, or IAPP-FA peptide analogs was quantitatively determined.
# RIN5fm cells = assay: Apoptosis ELISA (cell death detection kit, cytosolic nucleosomes); format: cell-based
# Experimental: In the second test, the effect of IAPP-GI on apoptotic β-cell death caused by IAPP amyloid was investigated (it is known that IAPP-mediated cell death is caused primarily by apoptosis). To this end, solutions of IAPP alone and in the presence of IAPP-GI (1:1) (5 μM in 10 mM sodium phosphate buffer, pH 7.4) were prepared, and were incubated with the plated cells at a final concentration of 500 nM for 20 h. The apoptosis was then quantified by use of a commercial apoptosis ELISA (cell death detection kit from Roche). The cytosolic nucleosomes, which are an early and specific indicator of apoptotic cell death, were quantified by use of this ELISA assay.
# RIN5fm cell line = format: cell-based
# Description: IAPP amyloid aggregates are cytotoxic for pancreatic β-cells and for many other cells. It is assumed that the cytotoxic effect of IAPP and other amyloid polypeptides is associated with their aggregation to the amyloid. It follows that since the analogs are not amyloidogenic, they should also not be cytotoxic. To test this hypothesis the MTT cytotoxicity test, which is based on the reduction of the dye 3-[4,5-dimethylthiazole-2-yl]-2,5-diphenyltetrazolium bromide (MTT) by “healthy” cells having an intact redox potential, was used (Shearman et al., J. Neurochem. (1995) 65, 218-227; Shearman et al., Proc. Natl. Acad. Sci. USA (1994) 91, 1470-74). The latter is an early indicator of cell viability or damage. It has been shown that the cytotoxic effect of amyloid aggregates, including IAPP, may be quantified by this test. The cell toxicity of IAPP and of the analogs was investigated using the RIN5fm pancreatic cell line as described by Kapurniotu et al., J. Mol. Biol. (2002) 315, 339-350) (FIG. 4). […] After incubation with the cells for approximately 20 h, MTT was added thereto, and after acting for 2 h the MIT reduction potential of the cells was spectrophotometrically determined. […]
SMILES,time over which peptide remained soluble [1],AC activation potential compared with IAPP ((human) IAPP receptor [2]),agonist character at the IAPP receptor ((human) IAPP receptor [2]),rank of receptor affinity among analogs tested ((human) IAPP receptor [3]),rank of agonist potency among analogs tested ((human) IAPP receptor [2]),"effect on IAPP-induced apoptotic β-cell death (RIN5fm cells; IAPP with IAPP-GI 1:1, final concentration 500 nM, 20 h)","cytotoxicity of the analog alone in the apoptosis assay (RIN5fm cells; IAPP-GI alone, same conditions, RIN5fm cells)",rank as inhibitor of IAPP cytotoxicity among analogs tested (RIN5fm cell line)
"CC[C@H](C)[C@H](NC(=O)[C@H](C)N(C)C(=O)CNC(=O)[C@H](Cc1ccccc1)N(C)C(=O)[C@H](CC(N)=O)NC(=O)[C@H](CC(N)=O)NC(=O)[C@H](CO)NC(=O)[C@H](CO)NC(=O)[C@H](Cc1c[nH]cn1)NC(=O)[C@@H](NC(=O)[C@H](CC(C)C)NC(=O)[C@H](Cc1ccccc1)NC(=O)[C@H](CC(N)=O)NC(=O)[C@H](C)NC(=O)[C@H](CC(C)C)NC(=O)[C@H](CCCNC(=N)N)NC(=O)[C@H](CCC(N)=O)NC(=O)[C@@H](NC(=O)[C@H](C)NC(=O)[C@@H]1CSSC[C@H](NC(=O)[C@@H](N)CCCCN)C(=O)N[C@@H](CC(N)=O)C(=O)N[C@@H]([C@@H](C)O)C(=O)N[C@@H](C)C(=O)N[C@@H]([C@@H](C)O)C(=O)N1)[C@@H](C)O)C(C)C)C(=O)N[C@@H](CC(C)C)C(=O)N[C@@H](CO)C(=O)N[C@@H](CO)C(=O)N[C@H](C(=O)N[C@@H](CC(N)=O)C(=O)N[C@H](C(=O)NCC(=O)N[C@@H](CO)C(=O)N[C@@H](CC(N)=O)C(=O)N[C@H](C(=O)N[C@@H](Cc1ccc(O)cc1)C(N)=O)[C@@H](C)O)C(C)C)[C@@H](C)O [IAPP-FA, [(N-Me)F^23, (N-Me)A^25]-IAPP]",≥ 14 days,the same AC activation potential as-IAPP,full IAPP agonists,–,–,–,–,–
"CC[C@H](C)[C@H](NC(=O)[C@H](C)N(C)C(=O)CNC(=O)[C@H](Cc1ccccc1)NC(=O)[C@H](CC(N)=O)NC(=O)[C@H](CC(N)=O)NC(=O)[C@H](CO)NC(=O)[C@H](CO)NC(=O)[C@H](Cc1c[nH]cn1)NC(=O)[C@@H](NC(=O)[C@H](CC(C)C)NC(=O)[C@H](Cc1ccccc1)NC(=O)[C@H](CC(N)=O)NC(=O)[C@H](C)NC(=O)[C@H](CC(C)C)NC(=O)[C@H](CCCNC(=N)N)NC(=O)[C@H](CCC(N)=O)NC(=O)[C@@H](NC(=O)[C@H](C)NC(=O)[C@@H]1CSSC[C@H](NC(=O)[C@@H](N)CCCCN)C(=O)N[C@@H](CC(N)=O)C(=O)N[C@@H]([C@@H](C)O)C(=O)N[C@@H](C)C(=O)N[C@@H]([C@@H](C)O)C(=O)N1)[C@@H](C)O)C(C)C)C(=O)N(C)[C@@H](CC(C)C)C(=O)N[C@@H](CO)C(=O)N[C@@H](CO)C(=O)N[C@H](C(=O)N[C@@H](CC(N)=O)C(=O)N[C@H](C(=O)NCC(=O)N[C@@H](CO)C(=O)N[C@@H](CC(N)=O)C(=O)N[C@H](C(=O)N[C@@H](Cc1ccc(O)cc1)C(N)=O)[C@@H](C)O)C(C)C)[C@@H](C)O [IAPP-AL, [(N-Me)A^25, (N-Me)L^27]-IAPP]",≥ 14 days,better AC activation ligand than IAPP,full IAPP agonists,highest receptor affinity,most potent agonist,–,–,–
"CC[C@H](C)[C@@H](C(=O)N[C@@H](CC(C)C)C(=O)N[C@@H](CO)C(=O)N[C@@H](CO)C(=O)N[C@H](C(=O)N[C@@H](CC(N)=O)C(=O)N[C@H](C(=O)NCC(=O)N[C@@H](CO)C(=O)N[C@@H](CC(N)=O)C(=O)N[C@H](C(=O)N[C@@H](Cc1ccc(O)cc1)C(N)=O)[C@@H](C)O)C(C)C)[C@@H](C)O)N(C)C(=O)[C@H](C)NC(=O)CN(C)C(=O)[C@H](Cc1ccccc1)NC(=O)[C@H](CC(N)=O)NC(=O)[C@H](CC(N)=O)NC(=O)[C@H](CO)NC(=O)[C@H](CO)NC(=O)[C@H](Cc1c[nH]cn1)NC(=O)[C@@H](NC(=O)[C@H](CC(C)C)NC(=O)[C@H](Cc1ccccc1)NC(=O)[C@H](CC(N)=O)NC(=O)[C@H](C)NC(=O)[C@H](CC(C)C)NC(=O)[C@H](CCCNC(=N)N)NC(=O)[C@H](CCC(N)=O)NC(=O)[C@@H](NC(=O)[C@H](C)NC(=O)[C@@H]1CSSC[C@H](NC(=O)[C@@H](N)CCCCN)C(=O)N[C@@H](CC(N)=O)C(=O)N[C@@H]([C@@H](C)O)C(=O)N[C@@H](C)C(=O)N[C@@H]([C@@H](C)O)C(=O)N1)[C@@H](C)O)C(C)C [IAPP-GI, [(N-Me)G^24, (N-Me)I^26]-IAPP]",≥ 14 days,weaker agonist than IAPP,full IAPP agonists,weakest,–,able to protect pancreatic β-cells from IAPP-induced apoptotic cell death,no cytotoxicity,most potent inhibitor of IAPP cytotoxicity
